Sequences of proteins named here, by UniProt entry; tags and fusion partners are left off. Residues count along the entry.
UniProt P28335, 33-458: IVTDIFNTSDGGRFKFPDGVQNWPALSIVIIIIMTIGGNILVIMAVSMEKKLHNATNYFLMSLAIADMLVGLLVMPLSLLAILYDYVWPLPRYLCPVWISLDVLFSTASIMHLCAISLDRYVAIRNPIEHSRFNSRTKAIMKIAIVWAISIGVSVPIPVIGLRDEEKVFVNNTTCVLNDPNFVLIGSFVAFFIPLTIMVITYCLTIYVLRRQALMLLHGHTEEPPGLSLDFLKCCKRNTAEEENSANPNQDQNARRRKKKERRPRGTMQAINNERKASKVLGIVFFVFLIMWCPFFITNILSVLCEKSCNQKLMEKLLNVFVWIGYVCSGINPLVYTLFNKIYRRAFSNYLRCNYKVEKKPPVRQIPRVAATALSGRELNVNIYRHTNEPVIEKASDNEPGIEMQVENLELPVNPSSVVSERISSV

According to patent US7435837B2, “Dihydrobenzofuranyl alkanamine derivatives and methods for using same” (Wyeth, priority 2003, dated 2008):

Experiments:
human 5-HT2C receptor = human 5-HT2C receptor (Homo sapiens, UniProt P28335); settings: reference compounds; calcium mobilization;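 further: Fluo-3-AM fluorescence read on FLIPR every 1 s, agonist added after 10 baseline reads, response taken as peak minus lowest raw fluorescence count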
[1] = target: T1, human 5-hydroxytryptamine-2C (h5-HT2C) receptor (Homo sapiens, UniProt P28335); assay: [125I]DOI binding to membranes of CHO cells expressing the human 5-HT2C receptor; settings: reference compounds; 95% confidence interval in parentheses; [125I]DOI radioligand
T1 construct: expressed in transfected cells; host or cells: CHO (Chinese Hamster Ovary) cells; membranes

Clc1cccc(N2CCNCC2)c1 [mCPP, meta-chlorophenylpiperazine, reference compound]
EC50 (human 5-HT2C receptor): 5.4 nM | Ki [1]: 6.5 nM
